This test concerns the target T1, receptor tyrosine kinase AXL (Homo sapiens, UniProt P30530).
T1 construct: 50 μL of AXL kinase domain recombinant protein diluted in reaction buffer was added to start the reaction; made in house; host or cells: insect cells (baculovirus expression system)
T1 sequence (P30530 536-807 limits assumed): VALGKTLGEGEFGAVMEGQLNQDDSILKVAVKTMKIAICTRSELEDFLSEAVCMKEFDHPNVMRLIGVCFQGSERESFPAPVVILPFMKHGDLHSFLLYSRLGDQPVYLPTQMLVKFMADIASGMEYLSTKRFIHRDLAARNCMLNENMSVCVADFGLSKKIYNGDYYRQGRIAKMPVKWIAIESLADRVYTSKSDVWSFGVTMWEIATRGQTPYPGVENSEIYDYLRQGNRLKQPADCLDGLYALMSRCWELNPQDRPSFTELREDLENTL
As to the kind of experiment: Enzyme activity of receptor tyrosine kinase AXL (ELISA). The class given is biochemical. The conditions noted are these: for inhibition at 0.01 µM / inhibition at 0.1 µM / inhibition at 1 µM / inhibition at 0.001 µM: read-out: AXL activity Inhibitory rate(%). Here is the method: Detection method: Enzyme-linked immunosorbent assay (ELISA)
Tested receptor tyrosine kinase: AXL
The full-wavelength microplate reader for experiment reading was a product of Molecular Device, model: SpectraMax 190; the experiment water was distilled water produced by Sinopharm Group.
Compound preparation: The compounds were centrifuged at 12,000 g for 5 min, and DMSO was added to prepare a 10^−2M stock solution, vortexed evenly and sonicated for 10 min for use, and stored at −40° C. During the test, the compound was diluted from the stock solution to 100 times the tested concentration with DMSO (the DMSO concentration in the system was 1%).
1. […] Discard the liquid from the well. The plate was washed and washed three times with T-PBS (0.1% Tween-20 in potassium-free PBS, 200 μL/well) for 5 minutes each time. The enzyme plate was dried in 37° C. dryer for 1-2 hours.
2. 49 μL of ATP solution diluted with reaction buffer (50 mM HEPES pH 7.4, 50 mM MgCl2, 0.5 mM MnCl2, 0.2 mM Na3VO4, 1 mM DTT) was added to each well, and […] of the tested compound was added to each well, and then 50 μL of AXL kinase domain recombinant protein diluted in reaction buffer was added to start the reaction. Two control wells without ATP were added in each experiment. (100 rpm) Reacted in 37° C. shaker for 1 hour. Discard the liquid from the well, and the plate was washed with T-PBS for three times.
3. […] Discard the liquid from the well, and the plate was washed with T-PBS for three times.
4. The horseradish peroxidase-labeled goat anti-mouse second antibody dilution (antibody diluted 1:2000 with BSA 5 mg/mL in T-PBS), 100 μL/well, and reacted in 37° C. shaker for 0.5 hours. Discard the liquid from the well, and the plate was washed with T-PBS for three times.
6. The reaction was quenched with 50 μL/well 2M […], and read at 490 nm using a tunable microplate reader VERSAmax.
The IC50 values were obtained by four-parameter regression analysis using the software supplied with the microplate reader.
On the technique in general: An ELISA detects its analyte on a solid surface through an enzyme-linked reagent.

Where two headings read alike, the source gives them in different places. Some results are limits rather than exact numbers.

In general, IC50 refers to the concentration needed to halve the response being measured. As to `COc1cc2ncnc(Oc3ccc(NC(=O)c4c5n(n(-c6ccc(F)cc6)c4=O)CCCC5)cc3F)c2cc1OC` [DC621043, N-(4-((6,7-dimethoxyquinazoline-4-yl)oxy)-3-fluorophenyl)-1-(4-fluorophenyl)-2-oxo-1,2,4,5,6,7-hexahydropyrazolo[1,5-a]pyridine-3-formamide], the inhibition at 0.01 µM came out at 49.1%, the inhibition at 0.1 µM amounted to 98.5% and the inhibition at 1 µM was found to be 100%. Further, under “read-out: AXL activity IC50”, the half-inhibitory concentration (IC50) amounted to 7.8 ± 1.1 nM.
As to `COc1cc2ncnc(Oc3ccc(NC(=O)c4c5n(n(-c6cc(F)ccc6F)c4=O)CCCC5)c(F)c3)c2cc1OC` [DC621053, 1-(2,5-difluorophenyl)-N-(4-((6,7-dimethoxyquinazoline-4-yl)oxy)-2-fluorophenyl)-2-oxo-1,2,4,5,6,7-hexahydropyrazolo[1,5-a]pyridine-3-formamide], the inhibition at 0.001 µM was found to be 28%, the inhibition at 0.01 µM was determined as 60% and the inhibition at 0.1 µM worked out at 89.8%.
Consider `COc1cc2ncnc(Oc3ccc(NC(=O)c4c5n(n(-c6ccccc6)c4=O)CCCC5)cc3)c2cc1OC` [DC621004, N-(4-((6,7-dimethoxyquinazoline-4-yl)oxy)phenyl)-2-oxo-1-phenyl-1,2,4,5,6,7-hexahydropyrazolo[1,5-a]pyridine-3-formamide], for which the inhibition at 0.01 µM was 35.2%, the inhibition at 0.1 µM was 95.2% and the inhibition at 1 µM worked out at 100%.
As to `COc1cc2ncnc(Oc3ccc(NC(=O)c4c5n(n(-c6ccccc6F)c4=O)CCCC5)cc3F)c2cc1OC` [DC621034, N-(4-((6,7-dimethoxyquinazoline-4-yl)oxy)-3-fluorophenyl)-1-(2-fluorophenyl)-2-oxo-1,2,4,5,6,7-hexahydropyrazolo[1,5-a]pyridine-3-formamide], the inhibition at 0.001 µM came out at 14.2%, the inhibition at 0.01 µM was found to be 70.1% and the inhibition at 0.1 µM is 89.4%. In addition, the concentration for half-maximal inhibition (IC50) (read-out: AXL activity IC50) is 9.4 ± 3.2 nM.
As for `COc1cc2ncnc(Oc3ccc(NC(=O)c4c5n(n(-c6cc(F)ccc6F)c4=O)CCCC5)cc3Cl)c2cc1OC` [DC621079, 1-(2,5-difluorophenyl)-N-(4-((6,7-dimethoxyquinazoline-4-yl)oxy)-3-chlorophenyl)-2-oxo-1,2,4,5,6,7-hexahydropyrazolo[1,5-a]pyridine-3-formamide], the inhibition at 0.001 µM came out at 34.4%, the inhibition at 0.01 µM was determined as 82.9% and the inhibition at 0.1 µM came to 100%.
As for `COc1cc2ncnc(Oc3ccc(NC(=O)c4c5n(n(-c6ccccc6)c4=O)CCCC5)cc3Cl)c2cc1OC` [DC621069, N-(4-((6,7-dimethoxyquinazoline-4-yl)oxy)-3-chlorophenyl)-2-oxo-1-phenyl-1,2,4,5,6,7-hexahydropyrazolo[1,5-a]pyridine-3-formamide], the inhibition at 0.001 µM was 9.7%, the inhibition at 0.01 µM was 71.2% and the inhibition at 0.1 µM turned out to be 96%.
The corresponding values for `COc1cc2ncnc(Oc3ccc(NC(=O)c4c5n(n(-c6ccccc6F)c4=O)CCCC5)cc3Cl)c2cc1OC` [DC621089, N-(4-((6,7-dimethoxyquinazoline-4-yl)oxy)-3-chlorophenyl)-1-(2-fluorophenyl)-2-oxo-1,2,4,5,6,7-hexahydropyrazolo[1,5-a]pyridine-3-formamide] are 31.6%, 52.2% and 97.8%.
With `COc1cc2ncnc(Oc3ccc(NC(=O)c4c5n(n(-c6cc(F)ccc6F)c4=O)CCCC5)cc3)c2cc1OC` [DC621022, 1-(2,5-difluorophenyl)-N-(4-((6,7-dimethoxyquinazoline-4-yl)oxy)phenyl)-2-oxo-1,2,4,5,6,7-hexahydropyrazolo[1,5-a]pyridine-3-formamide], the inhibition at 0.001 µM was 13.5%, the inhibition at 0.01 µM was determined as 66.5% and the inhibition at 0.1 µM stood at 100%. The IC50 (read-out: AXL activity IC50) was found to be 9.1 ± 0.2 nM.
The corresponding values for `COc1cc2ncnc(Oc3ccc(NC(=O)c4c5n(n(-c6ccccc6)c4=O)CCCC5)cc3F)c2cc1OC` [DC621011, N-(4-((6,7-dimethoxyquinazoline-4-yl)oxy)-3-fluorophenyl)-2-oxo-1-phenyl-1,2,4,5,6,7-hexahydropyrazolo[1,5-a]pyridine-3-formamide] are 17%, 66.6%, 100% and 8.1 ± 0.2 nM.
Consider `COc1cc2nccc(Oc3ccc(NC(=O)c4c5n(n(-c6ccccc6)c4=O)CCCC5)cc3F)c2cc1OC` [DC621001, N-(4-((6,7-dimethoxyquinoline-4-yl)oxy)-3-fluorophenyl)-2-oxo-1-phenyl-1,2,4,5,6,7-hexahydropyrazolo[1,5-a]pyridine-3-formamide], for which the IC50 is under 10 nM, the inhibition at 0.001 µM came to 32.2%, the inhibition at 0.01 µM came out at 80% and the inhibition at 0.1 µM stood at 100%. Moreover, the IC50 (read-out: AXL activity IC50) worked out at 2.5 ± 0.3 nM.
On to `COc1cc2ncnc(Oc3ccc(NC(=O)c4c5n(n(-c6ccccc6F)c4=O)CCCC5)c(F)c3)c2cc1OC` [DC621056, N-(4-((6,7-dimethoxyquinazoline-4-yl)oxy)-2-fluorophenyl)-1-(2-fluorophenyl)-2-oxo-1,2,4,5,6,7-hexahydropyrazolo[1,5-a]pyridine-3-formamide], for which the inhibition at 0.001 µM came out at 24%, the inhibition at 0.01 µM was determined as 69.4% and the inhibition at 0.1 µM stood at 98.8%.
Regarding `COc1cc2ncnc(Oc3ccc(NC(=O)c4c5n(n(-c6ccc(F)cc6)c4=O)CCCC5)c(F)c3)c2cc1OC` [DC621059, N-(4-((6,7-dimethoxyquinazoline-4-yl)oxy)-2-fluorophenyl)-1-(4-fluorophenyl)-2-oxo-1,2,4,5,6,7-hexahydropyrazolo[1,5-a]pyridine-3-formamide], the inhibition at 0.001 µM amounted to 32.5%, the inhibition at 0.01 µM is 61.6% and the inhibition at 0.1 µM was 94.4%.
As for `COc1cc2ncnc(Oc3ccc(NC(=O)c4c5n(n(-c6cc(F)ccc6F)c4=O)CCCC5)cc3F)c2cc1OC` [DC621023, 1-(2,5-difluorophenyl)-N-(4-((6,7-dimethoxyquinazoline-4-yl)oxy)-3-fluorophenyl)-2-oxo-1,2,4,5,6,7-hexahydropyrazolo[1,5-a]pyridine-3-formamide], the inhibition at 0.001 µM was 37.5%, the inhibition at 0.01 µM was determined as 80.2% and the inhibition at 0.1 µM turned out to be 100%. The 50% inhibitory concentration (IC50) (read-out: AXL activity IC50) amounted to 5.5 ± 1.6 nM.
Regarding `COc1cc2ncnc(Oc3ccc(NC(=O)c4c5n(n(-c6ccc(F)cc6)c4=O)CCCC5)cc3Cl)c2cc1OC` [DC621099, N-(4-((6,7-dimethoxyquinazoline-4-yl)oxy)-3-chlorophenyl)-1-(4-fluorophenyl)-2-oxo-1,2,4,5,6,7-hexahydropyrazolo[1,5-a]pyridine-3-formamide], the inhibition at 0.001 µM was found to be 19.2%, the inhibition at 0.01 µM amounted to 64.4% and the inhibition at 0.1 µM was determined as 100%.

The record behind these values is patent US12497394B2, “Fused-cyclic pyrazolone formamide compound and preparation method therefor, pharmaceutical composition and use thereof” (SHANGHAI INSTITUTE OF MATERIA MEDICA, CHINESE ACADEMY OF …, priority 2018, dated 2025).
